Test results as given in article PMC11272584 (Nature Metabolism, 2024).
Substitutions are numbered along the chain they refer to.

Columns and labels:
GIPR S382T = target: T1, GIPR S382T (Homo sapiens, UniProt P48546, S382T); conditions: GIPR S382T (7.47), mean, n = 3, duplicate
T1 sequence (P48546 22-466 S382T): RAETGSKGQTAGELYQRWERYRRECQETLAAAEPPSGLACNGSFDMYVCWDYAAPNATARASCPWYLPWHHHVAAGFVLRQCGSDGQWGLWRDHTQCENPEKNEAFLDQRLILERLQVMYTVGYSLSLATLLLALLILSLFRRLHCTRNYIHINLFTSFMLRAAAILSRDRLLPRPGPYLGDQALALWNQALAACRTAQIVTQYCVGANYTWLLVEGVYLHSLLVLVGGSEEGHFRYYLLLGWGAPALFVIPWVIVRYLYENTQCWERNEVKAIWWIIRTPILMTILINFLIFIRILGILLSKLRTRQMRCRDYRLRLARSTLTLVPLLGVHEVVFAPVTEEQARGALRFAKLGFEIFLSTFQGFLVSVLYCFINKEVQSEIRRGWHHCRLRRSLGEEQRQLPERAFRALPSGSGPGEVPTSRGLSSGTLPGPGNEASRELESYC

GIPR G449A = target: T2, GIPR G449A (Homo sapiens, UniProt P48546, G449A); conditions: GIPR G449A (ICD), mean, n = 3, duplicate
T2 sequence (P48546 22-466 G449A): T1 sequence (P48546 22-466 S382T) with T361S, G428A

GIPR Y73H = target: T3, GIPR Y73H (Homo sapiens, UniProt P48546, Y73H); test: cAMP accumulation; assay type: cell-based; design: host or cells: HEK293
T3 sequence (P48546 22-466 Y73H): T1 sequence (P48546 22-466 S382T) with Y52H, T361S

GIPR E291K = target: T4, GIPR E291K (Homo sapiens, UniProt P48546, E291K); test: cAMP accumulation; assay type: cell-based; design: host or cells: HEK293
T4 sequence (P48546 22-466 E291K): T1 sequence (P48546 22-466 S382T) with E270K, T361S

GIPR E354Q = target: T5, GIPR E354Q (Homo sapiens, UniProt P48546, E354Q); test: cAMP accumulation; assay type: cell-based; design: host or cells: HEK293
T5 sequence (P48546 22-466 E354Q): T1 sequence (P48546 22-466 S382T) with E333Q, T361S

## glucose-dependent insulinotropic polypeptide [GIP]
GIPR S382T; Hill slope 1.0
  logEC50 (Arrestin): -9.4
GIPR S382T; normalized to WT GIPR
  Arrestin (Emax): 6
GIPR G449A; Hill slope 1.0
  logEC50 (Arrestin): -9.2
GIPR G449A; normalized to WT GIPR
  Arrestin (Emax): 53
GIPR Y73H; HEK293, GIP(1–42) 1 pM–100 nM, 30 min 37 °C, mean of n = 6
  cAMP (Emax): 15 % of WT GIPR activity
GIPR Y73H; HEK293, Hill slope 1.0, mean of n = 6
  logEC50 (cAMP): -10.9
GIPR E291K; HEK293, GIP(1–42) 1 pM–100 nM, 30 min 37 °C, mean of n = 4
  cAMP (Emax): 230 % of WT GIPR activity
GIPR E291K; HEK293, Hill slope 1.0, mean of n = 4
  logEC50 (cAMP): -9.5
GIPR E354Q; HEK293, GIP(1–42) 1 pM–100 nM, 30 min 37 °C, mean of n = 3
  cAMP (Emax): 116 % of WT GIPR activity
GIPR E354Q; HEK293, Hill slope 1.0, mean of n = 3
  logEC50 (cAMP): -11.2
